The text below walks through data of PubChem BioAssay AID1792 (The Scripps Research Institute Molecular Screening Center, 2009).

Protein sequences, listed by entry. Tags and fused reporters are not part of them.
UniProt Q9Y5S8, whole entry: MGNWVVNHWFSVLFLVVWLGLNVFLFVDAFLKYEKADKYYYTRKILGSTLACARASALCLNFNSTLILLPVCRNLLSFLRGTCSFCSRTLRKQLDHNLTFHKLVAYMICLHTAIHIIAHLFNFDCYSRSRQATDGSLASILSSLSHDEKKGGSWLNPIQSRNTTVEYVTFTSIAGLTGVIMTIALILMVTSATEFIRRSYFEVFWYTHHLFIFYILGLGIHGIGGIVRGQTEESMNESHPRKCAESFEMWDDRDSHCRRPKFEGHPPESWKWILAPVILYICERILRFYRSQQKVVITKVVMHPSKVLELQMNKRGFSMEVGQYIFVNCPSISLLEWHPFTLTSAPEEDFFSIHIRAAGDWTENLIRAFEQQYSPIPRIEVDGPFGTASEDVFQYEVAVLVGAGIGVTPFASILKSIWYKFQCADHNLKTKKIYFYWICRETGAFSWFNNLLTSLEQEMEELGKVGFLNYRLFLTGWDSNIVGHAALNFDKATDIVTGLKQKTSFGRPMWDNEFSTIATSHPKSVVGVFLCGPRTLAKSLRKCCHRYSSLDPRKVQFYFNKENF

Usually inhibition stands for the relative decrease from the control value, in per cent.

The list shows a part of the results, in another mix than the full data. The source made the active and inactive calls. Cut-off read from the data, not from the text of the source: active = inhibition above about 75%; inactive = the rest.

The assay concerns the target NADPH oxidase 1 (Homo sapiens) (UniProt Q9Y5S8). The assay can be described thus: inhibitors of human NADPH oxidase 1 (Nox1) (AID 1792). Particulars: HT29 cells, luminol chemiluminescence ROS; at 6.7 µM; active compounds read high.
Turning to `O=[N+]([O-])C1([N+](=O)[O-])COCOC1`, the inhibition is inactive: -16.9%.
